Test results as given in PubChem BioAssay AID652154 (Broad Institute, 2013).
Only a part is listed here, and it is no random draw. Calls of active or inactive are those of the source.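 Rule for the calls: active = mean replicate inhibition at least 60% with every replicate also reaching 60%; inconclusive = only one of the two criteria is met; inactive = mean below 60% and not all replicates reaching 60%.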

test: inhibitors of PAX8-driven TPO luciferase reporter, primary screen, RMG-I cells, single concentration (AID 652154); conditions: SteadyGlo, 24 h, at 12.6 µM, active compounds read high;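 note: luciferase light reporting Pax8 driven TPO promoter activity; plate controls were median of neutral control wells for no effect and mitoxantrone controls for full effect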

| Compound | inhibition |
| --- | --- |
| CCCCn1nnnc1C(c1ccnc2ccccc12)N1CCC(n2c(=O)[nH]c3ccccc32)CC1 (stereo unspecified) | inactive: 12.1% |
| COc1cc(OC)c(C(=O)NCC2(N(C)C)CCCCC2)cc1OC | inactive: 1.16% |
| O=C(NCC1(N2CCOCC2)CCCCC1)c1cc(F)c(F)cc1Cl | inactive: -23.5% |
| CCC(c1nnnn1C(C)(C)C)N1CCC(n2c(=O)[nH]c3ccccc32)CC1 (stereo unspecified) | inactive: -39.8% |
| COc1ccc(CN(CCCl)CCCl)cc1Cl | inactive: -16% |
| CN(C)c1cccc(C(=O)NCC2(N3CCCCC3)CCCCC2)c1 | inactive: 19.1% |
| CC(C)c1ccc(NC2CCN(C(=O)OC(C)(C)C)CC2)cc1 | inactive: -99.6% |
| Cc1ccc(C(=O)NCC2(N(C)C)CCCCC2)o1 | inactive: -20.8% |
| CCCOc1ccc(C(=O)NCC2(N(C)C)CCCCC2)cc1OC | inactive: 10.1% |
| COc1ccc(C(c2nnnn2C2CCCC2)N2CCC(n3c(=O)[nH]c4ccccc43)CC2)cc1 (stereo unspecified) | inactive: -8.72% |
| O=C(NCC1(N2CCCCC2)CCCCC1)c1cncc(Br)c1 | inactive: 5.62% |
| CSc1ccc(C(=O)NCC2(N3CCOCC3)CCCCC2)cc1 | inactive: -7.44% |
| O=C(NCC1(N2CCCCC2)CCCCC1)c1cccc([N+](=O)[O-])c1 | inactive: 5.68% |
| CCN1CCC(Nc2ccc(Cl)cc2)CC1 | inactive: -2.82% |
| O=c1[nH]c2ccccc2n1C1CCN(C(c2ccccc2OC(F)(F)F)c2nnnn2C2CCCC2)CC1 (stereo unspecified) | inactive: 7.75% |
| CC(C)(C)n1nnnc1C(c1ccccc1OC(F)(F)F)N1CCC(n2c(=O)[nH]c3ccccc32)CC1 (stereo unspecified) | inactive: 35.9% |
| O=C(NCC1(N2CCCCC2)CCCCC1)c1ccc(OC(F)F)cc1 | inactive: 9.96% |
| CN1CCN(CCOC(=O)C(O)(c2ccccc2)c2ccccc2)CC1 | inactive: -0.63% |
| CC(C)c1ccc(C(=O)NCC2(N3CCOCC3)CCCCC2)cc1 | inactive: -27.2% |
| COc1ccc(NC2CCN(C(=O)OC(C)(C)C)CC2)cc1 | inactive: -19.8% |
| CCCCn1nnnc1C(c1cccc2ccccc12)N1CCC(n2c(=O)[nH]c3ccccc32)CC1 (stereo unspecified) | inactive: 19.6% |
| COc1cc(C(=O)NCC2(N3CCCCC3)CCCCC2)ccc1OC(F)F | inactive: 9.48% |
| O=C(NCC1(N2CCCCC2)CCCCC1)c1cccc(C(F)(F)F)c1 | inactive: -5.8% |
| O=P1(N(CCCl)CCCl)SCCCS1 | inactive: -20.5% |

| Compound | inhibition |
| --- | --- |
| CCCCn1nnnc1C(c1cc2ccccc2o1)N1CCC(n2c(=O)[nH]c3ccccc32)CC1 (stereo unspecified) | inactive: 39.6% |
| CCCCOc1ccc(C(=O)NCC2(N3CCOCC3)CCCCC2)cc1 | inactive: -8.47% |
| O=C(NCC1(N2CCCCC2)CCCCC1)c1ccc(F)cc1 | inactive: 23.8% |
| CCOC(=O)N1CCC(Nc2ccc(F)cc2)CC1 | inactive: -1.75% |
| CCOc1ccc(C)cc1CN(CCCl)CCCl | inactive: 6.61% |
| CC(C)(C)n1nnnc1C(c1ccccc1)N1CCC(n2c(=O)[nH]c3ccccc32)CC1 (stereo unspecified) | inactive: -6.72% |
| O=c1[nH]c2ccccc2n1C1CCN(C(c2cccc3ccccc23)c2nnnn2C2CCCC2)CC1 (stereo unspecified) | inactive: 40.1% |
| CCOC(=O)N1CCC(Nc2cccc(C)c2)CC1 | inactive: -140% |
| COc1cc(C(=O)NCC2(N(C)C)CCCCC2)ccc1OC(F)F | inactive: -0.557% |
| O=c1[nH]c2ccccc2n1C1CCN(C(c2ccccc2)c2nnnn2C2CCCCC2)CC1 (stereo unspecified) | inactive: -3.75% |
| CSc1ccccc1C(=O)NCC1(N2CCCCC2)CCCCC1 | inactive: 13.8% |
| Cc1cccc(NC2(C#N)CCN(Cc3ccccc3)CC2)c1 | inactive: -18.8% |
| O=C(NCC1(N2CCCCC2)CCCCC1)c1ccc(=O)[nH]c1 | inactive: -4.63% |
| O=C(NCC1(N2CCCCC2)CCCCC1)c1cccs1 | inactive: -2.43% |
| CCCCn1nnnc1C(CC)N1CCC(n2c(=O)[nH]c3ccccc32)CC1 (stereo unspecified) | inactive: -2.2% |
| CCCCn1nnnc1C(c1cccs1)N1CCC(n2c(=O)[nH]c3ccccc32)CC1 (stereo unspecified) | inactive: 1.71% |
| COc1ccc(C(=O)NCC2(N3CCCCC3)CCCCC2)cc1 | inactive: -0.611% |
| CC(C)(C)OC(=O)N1CCC(N(C(=O)c2ccccc2)c2ccc(F)cc2)CC1 | inactive: -2.75% |
| COc1ccc(C(=O)NCC2(N3CCCCC3)CCCCC2)c(OC)c1OC | inactive: 3.91% |
| CCC(c1nnnn1C1CCCC1)N1CCC(n2c(=O)[nH]c3ccccc32)CC1 (stereo unspecified) | inactive: -20% |
| CCOC(=O)N1CCC(Nc2ccc(OC)cc2)CC1 | inactive: 2.4% |
| CCCCn1nnnc1C(c1ccc(OC)cc1)N1CCC(n2c(=O)[nH]c3ccccc32)CC1 (stereo unspecified) | inactive: 3.81% |
| N#CC1(Nc2ccccc2)CCN(Cc2ccccc2)CC1 | inactive: -15.6% |
| O=C(NCC1(N2CCCCC2)CCCCC1)c1ccc(Cl)s1 | inactive: 8.78% |

| Compound | inhibition |
| --- | --- |
| O=c1[nH]c2ccccc2n1C1CCN(C(c2cc3ccccc3o2)c2nnnn2C2CCCCC2)CC1 (stereo unspecified) | inactive: -8.93% |
| COc1ccc(Cl)cc1C(=O)NCC1(N2CCOCC2)CCCCC1 | inactive: 1.5% |
| O=c1[nH]c2ccccc2n1C1CCN(C(c2ccccc2OC(F)(F)F)c2nnnn2C2CCCCC2)CC1 (stereo unspecified) | inactive: -23.5% |
| Cc1cc(C)cc(N(C(=O)c2ccccc2)C2CCN(C(=O)OC(C)(C)C)CC2)c1 | inactive: 6.7% |
| O=c1[nH]c2ccccc2n1C1CCN(C(c2cc3ccccc3o2)c2nnnn2C2CCCC2)CC1 (stereo unspecified) | inactive: -13.9% |
| CCCOc1ccc(C(=O)NCC2(N(C)C)CCCCC2)cc1 | inactive: -8.46% |
| CC(C)(C)OC(=O)N1CCC(Nc2ccccc2)CC1 | inactive: 2.2% |
| O=C(O)C1(Nc2ccccc2)CCN(Cc2ccccc2)CC1 | inactive: -15.4% |
| NN(c1ccccc1)C1CCN(CCc2ccccc2)CC1 | inactive: 7.18% |
| CN1CCC(Nc2ccc(F)c(Cl)c2)CC1 | inactive: -17.2% |
| CN1CCC(Nc2ccc(Cl)cc2)CC1 | inactive: -2.89% |
| COc1cccc(C(c2nnnn2C2CCCC2)N2CCC(n3c(=O)[nH]c4ccccc43)CC2)c1OC (stereo unspecified) | inactive: 27.8% |
| COc1cc(OC)cc(C(=O)NCC2(N3CCOCC3)CCCCC2)c1 | inactive: 35.1% |
| COc1cccc(C(=O)N(c2cc(C)cc(C)c2)C2CCN(C(=O)OC(C)(C)C)CC2)c1 | inactive: 26.7% |
| Cc1ccc(NC2(C#N)CCN(Cc3ccccc3)CC2)cc1 | inactive: -5.28% |
| Cc1ccc(C(=O)NCC2(N3CCCCC3)CCCCC2)o1 | inactive: -27.1% |
| COc1cc(OC)cc(C(=O)NCC2(N3CCCCC3)CCCCC2)c1 | inactive: 12.5% |
| O=c1[nH]c2ccccc2n1C1CCN(C(c2ccnc3ccccc23)c2nnnn2C2CCCCC2)CC1 (stereo unspecified) | inactive: -10.4% |
| COc1cccc(C(c2nnnn2C2CCCCC2)N2CCC(n3c(=O)[nH]c4ccccc43)CC2)c1OC (stereo unspecified) | inactive: 44.2% |
| CC(=O)N(c1ccccc1)C1CCNCC1 | inactive: -12.4% |
| CCC(c1nnnn1C1CCCCC1)N1CCC(n2c(=O)[nH]c3ccccc32)CC1 (stereo unspecified) | inactive: 5.87% |
| O=C(NCC1(N2CCCCC2)CCCCC1)c1ccco1 | inactive: -14% |
| CN(C)c1ccc(C(=O)NCC2(N3CCCCC3)CCCCC2)cc1 | inactive: 0.831% |
| Cn1c(=O)[nH]cc(N(CCCl)CCCl)c1=O | inactive: 1.32% |

| Compound | inhibition |
| --- | --- |
| Cc1ccccc1NC1(C#N)CCN(Cc2ccccc2)CC1 | inactive: 0.222% |
| CCN1CCC(Nc2cccc(F)c2)CC1 | inactive: 10.3% |
| COc1ccc(C(c2nnnn2C2CCCCC2)N2CCC(n3c(=O)[nH]c4ccccc43)CC2)cc1 (stereo unspecified) | inactive: -19% |
| CC(C)(C)n1nnnc1C(c1ccnc2ccccc12)N1CCC(n2c(=O)[nH]c3ccccc32)CC1 (stereo unspecified) | inactive: 16.3% |
| CC(C)(C)OC(=O)N1CCC(N(C(=O)c2ccccc2)c2ccc(Cl)cc2)CC1 | inactive: -0.563% |
| N#Cc1ccc(C(=O)NCC2(N3CCCCC3)CCCCC2)cc1 | inactive: 18.7% |
| CC(C)(C)n1nnnc1C(c1cccc2ccccc12)N1CCC(n2c(=O)[nH]c3ccccc32)CC1 (stereo unspecified) | inactive: 29.7% |
| C/C(N)=N\P(=O)(Oc1ccccc1)Oc1ccccc1 | inactive: 7.6% |
| c1ccc(CN2CCC(Nc3ccccc3)CC2)cc1 | inactive: -5.62% |
| Cc1cc(N(CCCl)CCCl)ccc1C=O | inactive: 21.6% |
| CCCN1CCC(Nc2cc(OC)cc(OC)c2)CC1 | inactive: 7.66% |
| O=c1[nH]c2ccccc2n1C1CCN(C(c2ccccc2)c2nnnn2C2CCCC2)CC1 (stereo unspecified) | inactive: 2.47% |
| CN(C)C1(CNC(=O)c2cccc(C#N)c2)CCCCC1 | inactive: 1.12% |
| COc1ccc(C(=O)NCC2(N3CCOCC3)CCCCC2)cc1OC | inactive: 12.3% |
| O=c1[nH]c2ccccc2n1C1CCN(C(c2ccnc3ccccc23)c2nnnn2C2CCCC2)CC1 (stereo unspecified) | inactive: 32.5% |
| O=c1[nH]c2ccccc2n1C1CCN(C(c2cccs2)c2nnnn2C2CCCCC2)CC1 (stereo unspecified) | inactive: 8.59% |
| O=C(NCC1(N2CCOCC2)CCCCC1)c1cc(Br)ccc1Cl | inactive: -8.66% |
| CCCCn1nnnc1C(c1ccccc1)N1CCC(n2c(=O)[nH]c3ccccc32)CC1 (stereo unspecified) | inactive: 14.4% |
| COc1cc(C(=O)NCC2(N3CCOCC3)CCCCC2)cc(OC)c1C | inactive: 9.47% |
| CCCCn1nnnc1C(c1cccc(OC)c1OC)N1CCC(n2c(=O)[nH]c3ccccc32)CC1 (stereo unspecified) | inactive: 19% |
| O=C(OC1CN2CCC1CC2)C1c2ccccc2C=Cc2ccccc21 (stereo unspecified) | inactive: -2.02% |
| O=c1[nH]c2ccccc2n1C1CCN(C(c2cccs2)c2nnnn2C2CCCC2)CC1 (stereo unspecified) | inactive: -10.2% |
| CCOC(=O)N1CCC(Nc2ccc(C)cc2)CC1 | inactive: 3.39% |
| COc1cccc(C(c2nnnn2C(C)(C)C)N2CCC(n3c(=O)[nH]c4ccccc43)CC2)c1OC (stereo unspecified) | inactive: 28.4% |
